Measured values: ChEMBL document CHEMBL1133454, “Structure-activity studies of reduced-size gonadotropin-releasing hormone agonists derived from the sequence of an endothelin antagonist” (J Med Chem, 2000)

Chains of the proteins cited; added tags and fusions are not shown. Lines headed by an entry give the natural chain unless they say otherwise; changes in a name come on top.
UniProt P26684: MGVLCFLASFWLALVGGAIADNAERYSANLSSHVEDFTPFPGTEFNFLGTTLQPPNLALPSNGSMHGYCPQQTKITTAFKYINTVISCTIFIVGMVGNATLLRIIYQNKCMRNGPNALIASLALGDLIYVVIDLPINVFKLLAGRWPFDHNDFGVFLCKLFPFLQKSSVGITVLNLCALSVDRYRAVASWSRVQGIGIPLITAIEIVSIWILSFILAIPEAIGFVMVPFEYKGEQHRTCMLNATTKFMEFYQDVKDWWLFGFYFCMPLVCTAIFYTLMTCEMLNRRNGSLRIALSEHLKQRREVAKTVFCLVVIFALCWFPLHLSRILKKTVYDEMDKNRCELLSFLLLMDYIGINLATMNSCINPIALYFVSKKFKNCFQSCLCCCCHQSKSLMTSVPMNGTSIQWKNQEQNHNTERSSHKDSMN
UniProt P21451: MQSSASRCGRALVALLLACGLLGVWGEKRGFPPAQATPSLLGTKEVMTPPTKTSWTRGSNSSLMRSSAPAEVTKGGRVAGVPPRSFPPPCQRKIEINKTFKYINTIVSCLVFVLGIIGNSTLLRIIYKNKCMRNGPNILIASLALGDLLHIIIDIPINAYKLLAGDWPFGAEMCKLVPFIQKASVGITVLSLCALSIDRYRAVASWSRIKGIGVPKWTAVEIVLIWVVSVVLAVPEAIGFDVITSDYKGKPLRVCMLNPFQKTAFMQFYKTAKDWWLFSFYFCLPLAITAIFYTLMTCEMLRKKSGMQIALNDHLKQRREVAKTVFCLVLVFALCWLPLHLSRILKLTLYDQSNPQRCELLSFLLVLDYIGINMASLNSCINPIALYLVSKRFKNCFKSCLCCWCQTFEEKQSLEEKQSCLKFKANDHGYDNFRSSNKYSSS

Molecular target: Endothelin receptor (Rattus norvegicus, UniProt P26684+P21451)
Experiment: Inhibition constant for the displacement of specific binding of [125I]-ET (Kd=2 nM) bound to rat pituitary membrane
Type: tissue-based, Pituitary gland
Method in brief: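 Pituitary membranes from random-cycling Wistar-derived rats (50 μg protein/tube) incubated 120 min at 37 °C with 25 pM 125I-ET-1 and rising concentrations of unlabeled peptide in 10 mM Tris-HCl/0.1% BSA. Filtered on GF/C and gamma-counted. Nonspecific binding defined with 1 μM ET-1. Ki from displacement curves; two triplicate experiments, mean ± SEM.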

Ki: 120 nM
SMILES: CC[C@H](C)[C@H](NC(=O)[C@H](CC(=O)O)NC(=O)[C@H](CC(C)C)NC(=O)[C@@H](Cc1c[nH]c2ccccc12)NC(C)=O)C(=O)N[C@H](C(=O)N[C@@H](Cc1c[nH]c2ccccc12)C(=O)O)[C@@H](C)CC
